Measured values taken from patent US20240316019A1 (Bayer Aktiengesellschaft, priority 2023, published 2024).
Like-named read-outs stand apart in the source and are kept apart here.

System: patients with acute non-cardioembolic ischemic stroke
Conditions: for Primary safety composite: ISTH major and clinically relevant non-major bleeding, % participants / Primary safety composite: ISTH major and clinically relevant non-major bleeding, n participants: while on treatment

CC[C@@H](C(=O)Nc1ccc(C(N)=O)c(F)c1)n1cc(OC)c(-c2cc(Cl)ccc2-n2cc(C(F)(F)F)nn2)cc1=O [Compound A, (4S)-2^4-chloro-4-ethyl-7^3-fluoro-3^5-methoxy-3^2,5-dioxo-14-(trifluoromethyl)-3^2H-6-aza-3(4,1)-pyridina-1(1)-[1,2,3]triazola-2(1,2),7(1)-dibenzenaheptaphane-7^4-carboxamide]
Primary safety composite: ISTH major and clinically relevant non-major bleeding, % participants (10 mg, of 445): 4%
Primary safety composite: ISTH major and clinically relevant non-major bleeding, n participants (10 mg, of 445): 19
Primary safety composite: ISTH major and clinically relevant non-major bleeding, % participants (20 mg, of 446): 3%
Primary safety composite: ISTH major and clinically relevant non-major bleeding, n participants (20 mg, of 446): 14
Primary safety composite: ISTH major and clinically relevant non-major bleeding, % participants (50 mg, of 443): 4%
Primary safety composite: ISTH major and clinically relevant non-major bleeding, n participants (50 mg, of 443): 19
New safety signals when added to antiplatelet therapy (patients with acute non-cardioembolic ischemic stroke associated with atherosclerosis): without causing new safety signals
Primary safety outcome events, dose-response association and increase vs placebo (pooled Compound A groups vs placebo): No dose-response association and no significant increase
